Measured values: patent US9090568B2, “Quinazolinediones and their use” (IMPACT Therapeutics, Inc., priority 2011, dated 2015)

Amino acid sequences for entries named in this document (tags omitted).
UniProt P09874, whole entry: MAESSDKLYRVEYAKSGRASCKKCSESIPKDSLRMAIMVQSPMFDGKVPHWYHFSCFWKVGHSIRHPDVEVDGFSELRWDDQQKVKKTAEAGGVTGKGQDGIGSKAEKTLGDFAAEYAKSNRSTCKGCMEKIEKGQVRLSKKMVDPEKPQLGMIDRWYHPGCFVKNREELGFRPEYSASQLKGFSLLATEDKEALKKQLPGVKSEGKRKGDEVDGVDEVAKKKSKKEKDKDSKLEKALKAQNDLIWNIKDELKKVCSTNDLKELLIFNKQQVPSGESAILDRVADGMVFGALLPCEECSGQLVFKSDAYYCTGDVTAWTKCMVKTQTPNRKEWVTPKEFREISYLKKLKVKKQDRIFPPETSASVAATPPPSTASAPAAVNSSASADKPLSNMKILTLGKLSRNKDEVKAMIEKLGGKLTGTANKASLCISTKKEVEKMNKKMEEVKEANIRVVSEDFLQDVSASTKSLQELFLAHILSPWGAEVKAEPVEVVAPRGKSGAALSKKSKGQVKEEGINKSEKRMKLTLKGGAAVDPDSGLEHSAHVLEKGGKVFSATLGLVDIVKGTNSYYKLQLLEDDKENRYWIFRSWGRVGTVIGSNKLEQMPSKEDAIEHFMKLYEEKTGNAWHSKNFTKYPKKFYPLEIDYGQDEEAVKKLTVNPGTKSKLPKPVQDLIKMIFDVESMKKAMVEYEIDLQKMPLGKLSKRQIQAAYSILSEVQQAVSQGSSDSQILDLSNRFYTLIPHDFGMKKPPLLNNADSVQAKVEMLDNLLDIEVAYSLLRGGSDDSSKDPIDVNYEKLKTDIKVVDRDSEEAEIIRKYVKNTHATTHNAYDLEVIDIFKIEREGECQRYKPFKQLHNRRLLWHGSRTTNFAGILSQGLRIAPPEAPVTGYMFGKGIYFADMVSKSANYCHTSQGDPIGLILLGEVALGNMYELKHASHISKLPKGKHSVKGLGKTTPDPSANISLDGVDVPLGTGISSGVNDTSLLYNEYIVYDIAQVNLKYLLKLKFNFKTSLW

Legend:
PARP-1 = PARP-1 (Homo sapiens, UniProt P09874); test: PARP-1 activity assay (HT Universal chemiluminescent PARP Assay Kit); format: biochemical; settings: read-out: PARP1 enzyme IC50; 0.5 unit/well PARP-1, 25° C., 45 minutes
MDA-MB-436 cells = test: Cell proliferation assay (MTS, 7 days); format: cell-based; settings: read-out: MDA-MB-436 cells EC50
[1] = Pharmacokinetic assay, intravenous and oral administration; settings: after oral administrations in rats
SW620 xenograft = test: In vivo efficacy study: potentiating antitumor activity in combination with temozolomide; settings: SW620 xenograft mice, oral, in combination with temozolomide (50 mg/kg) once daily for 5 days

Row | Compound | IC50 (PARP-1) [nM] | EC50 (MDA-MB-436 cells) [nM] | bioavailability (in words) [1] | suppression of tumor growth compared to the temozolomide control (SW620 xenograft)
1 | O=C(c1cc(Cn2c(=O)[nH]c(=O)c3ccccc32)ccc1F)N1CCC(c2ncc[nH]2)CC1 | 0.1 to 10 | 1000 to 100000 | – | –
2 | O=C(c1cc(Cn2c(=O)[nH]c(=O)c3ccccc32)ccc1F)N1CCN(c2ccccn2)CC1 | 0.1 to 10 | > 10 | bioavailable | Significant suppression of tumor growth
3 | O=C(c1cc(Cn2c(=O)[nH]c(=O)c3ccccc32)ccc1F)N1CCC(F)CC1 | > 10 | 1000 to 100000 | – | –
4 | O=C(c1cc(Cn2c(=O)[nH]c(=O)c3ccccc32)ccc1F)N1CCC(O)CC1 | 0.1 to 10 | 1000 to 100000 | – | –
5 | O=C(c1cc(Cn2c(=O)[nH]c(=O)c3ccccc32)ccc1F)N1CCC(F)(F)CC1 | > 10 | 1000 to 100000 | – | –
6 | CCOC1CCN(C(=O)c2cc(Cn3c(=O)[nH]c(=O)c4ccccc43)ccc2F)CC1 | 0.1 to 10 | > 10 | – | –
7 | CC(C)OC1CCN(C(=O)c2cc(Cn3c(=O)[nH]c(=O)c4ccccc43)ccc2F)CC1 | 0.1 to 10 | > 10 | – | –
8 | CC(C)(C)OC1CCN(C(=O)c2cc(Cn3c(=O)[nH]c(=O)c4ccccc43)ccc2F)CC1 | 0.1 to 10 | > 10 | – | –
9 | O=C(c1cc(Cn2c(=O)[nH]c(=O)c3ccccc32)ccc1F)N1Cc2ccccc2C1 | 0.1 to 10 | > 10 | – | –
